Results published in US20240400711A1 (SOUND BIOPHARMACEUTICALS, published 2024).

Biological target: T1, CD38 on CD38-positive cells (human, UniProt P28907 1-300)
T1 construct: whole, on cells; also called CD38 on H211, SU-DHL-6, Daudi, Ramos (Romas), Raji, SU-DHL-1, DU145, H157 cells
Assay: flow cytometry on SU-DHL-6 cells (B cell lymphoma), MFI against antibody concentration [table, row SU-DHL-6]

EC50: 0.436 µg/mL
B1: FTL004-1 (antibody, human IgG1, kappa)
heavy: not shown
light: DIVLTQSPASLAVSPGQRATITCRASESVDNFGITFMHWYQQKPGQPPKLLIYRASNLESGVPARFSGSGSRTDFTLTINPVEANDTANYYCQQSSKDPRTFGQGTKLEIKRTVAAPSVFIFPPSDEQLKSGTASVVCLLNNFYPREAKVQWKVDNALQSGNSQESVTEQDSKDSTYSLSSTLTLSKADYEKHKVYACEVTHQGLSSPVTKSFNRGEC
notes: copies: 2 + 2
